This passage reports GI50 results from ChEMBL document CHEMBL1201862, “PubChem BioAssay data set” (2004).

The list shows a part of the results. Rule as the data show it, for most assays here: active = GI50 up to about 1.1 µM and inactive = higher. These assays gave more results; the selection is not random.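 Grown in 96-well plates, cells were treated for 48 hours with each compound at five concentrations. Insufficient inhibition: endpoint recorded as highest concentration tested. GI50: concentration for 50% inhibition of growth.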 For part of these data: Measured potencies and affinities stand elsewhere.

Test in all cases: NCI tumour cell line growth inhibition, 48 h
For experiment [1], the system named is DU-145.
For experiment [2], the system named is EKVX.
Experiment [3] relates to HCC 2998.
Experiment [4] deals with HCT-116.
For experiment [5], the system named is HCT-15.
Experiment [6] relates to HL-60.
Experiment [7] relates to HOP-62.
The subject of experiment [8] is HOP-92.
Experiment [9] concerns HT-29.
In experiment [10] the test system is Hs-578T.
Experiment [11] concerns IGROV-1.
Experiment [12] concerns K562.
The subject of experiment [13] is KM12.
The test system of experiment [14] is LOX IMVI.
In experiment [15] the test system is M14.

Turning to `COc1ccc2nccc(C=O)c2c1`, the GI50 in [1] was inactive: 1.79 µM; in experiment [2], inactive: 36.6 µM; in experiment [3] it was active: 0.65 µM; in experiment [4], active: 0.083 µM; in experiment [5] it was active: 0.199 µM; in experiment [6], active: 0.222 µM. Moreover, the GI50 was inactive: 9.75 µM in experiment [7]; active: 0.817 µM in [8]; inactive: 3.01 µM in experiment [9]; inactive: 6.17 µM in experiment [10]; inactive: 9.06 µM in experiment [11]; active: 0.0745 µM in experiment [12]. For the same molecule, the GI50 in experiment [13] is inactive: 30.1 µM; in experiment [14] it was active: 0.615 µM; in [15] it was inactive: 3.58 µM.
For `Cn1c(=O)c([N+](=O)[O-])c(N=[N+]=[N-])c2ccccc21`, in [8], the GI50 was inactive: 1.91 µM.
For the molecule `COP(C)(=O)C(N)Cc1ccccc1` (centres undefined), the GI50 in [1], in [2], in [4], in experiment [5], in [6] and in [7] was inactive: > 100 µM throughout. Besides, the GI50 in experiment [8], in experiment [9], in experiment [10], in experiment [11], in experiment [12] and in experiment [13] was inactive: > 100 µM in each case. For the same molecule, the GI50 in experiment [14] and in [15] was inactive: > 100 µM in each case.
Regarding `COc1ccc([N+](=O)[O-])c(C[N+](C)(CCCl)CCCl)c1`, the GI50 is inactive: > 100 µM in [1]; inactive: > 100 µM in experiment [2]; inactive: > 100 µM in [4]; inactive: > 100 µM in [5]; inactive: 70.3 µM in [6]; inactive: > 100 µM in experiment [7]. Besides, the GI50 in experiment [8], in experiment [9], in experiment [10], in [11], in experiment [12] and in [13] was inactive: > 100 µM throughout. For the same molecule, the GI50 in experiment [14] and in experiment [15] was inactive: > 100 µM in each case.
For the molecule `O=C1CCN2CCCC12` (centres undefined), the GI50 in experiment [1], in experiment [2], in [3], in experiment [4], in experiment [5] and in experiment [6] was inactive: > 100 µM throughout. Further, the GI50 in experiment [7] was inactive: > 100 µM; in [8] it was inactive: 37.3 µM; in [9] it was inactive: > 100 µM; in experiment [10], inactive: > 100 µM; in experiment [11], inactive: > 100 µM; in experiment [12], inactive: 69.3 µM. Besides, the GI50 was inactive: > 100 µM in experiment [13], inactive: 97.3 µM in experiment [14] and inactive: 68.7 µM in [15].
On to `O=[N+]([O-])C(Cl)(Cl)/C=C(\Cl)C(Cl)(Cl)[N+](=O)[O-]`, for which, in experiment [12], the GI50 was active: 0.0159 µM.
For `O=[N+]([O-])c1ncn(F)c1[N+](=O)[O-]`, the GI50 was inactive: > 100 µM in [1]; inactive: > 100 µM in experiment [2]; inactive: 10 µM in experiment [3]; inactive: > 100 µM in experiment [4]; inactive: 41.7 µM in [5]; inactive: 22 µM in [6]. The GI50 is inactive: > 100 µM in [8]; inactive: > 100 µM in [9]; inactive: > 100 µM in experiment [11]; inactive: > 100 µM in [12]; inactive: > 100 µM in experiment [13]; inactive: 79.8 µM in [14]. Also, the GI50 in experiment [15] was inactive: > 100 µM.
As for `O=[N+]([O-])C1([N+](=O)[O-])CCCc2nonc21`, the GI50 is inactive: > 100 µM in experiment [1]; inactive: > 100 µM in [2]; inactive: 43.1 µM in [3]; inactive: 30.5 µM in experiment [4]; inactive: 28.8 µM in experiment [5]; inactive: 5.14 µM in [6]. For the same molecule, the GI50 in experiment [7] is inactive: 43.4 µM; in experiment [8] it was inactive: 44.2 µM; in [9] it was inactive: 30.4 µM; in experiment [10] it was inactive: 13.8 µM; in experiment [11] it was inactive: 17.6 µM; in [13] it was inactive: 33 µM. Besides, the GI50 in experiment [14] is inactive: 17.2 µM; in [15] it was inactive: 16.3 µM.
Consider `NNc1nc2nonc2nc1NN`, for which the GI50 in [1] was inactive: 32.7 µM; in experiment [2] it was inactive: 20.9 µM; in experiment [3], inactive: 52.8 µM; in experiment [4] it was inactive: 28.8 µM; in experiment [5], inactive: 33.3 µM; in experiment [6], inactive: 51.8 µM. For the same molecule, the GI50 is inactive: 78 µM in experiment [7]; inactive: 55 µM in [8]; inactive: 27.9 µM in [9]; inactive: 73.3 µM in experiment [10]; inactive: 21.8 µM in experiment [11]; inactive: 33.4 µM in experiment [12]. Besides, the results for the GI50 in [13], in experiment [14] and in experiment [15] were inactive: 46.1 µM, inactive: 31.6 µM and inactive: 27.9 µM, respectively.
On to `O[C@@H]1CCN2CCC[C@H]12`, for which the GI50 in experiment [1], in [2], in [3], in experiment [4], in experiment [5] and in experiment [6] was inactive: > 100 µM each time. For the same molecule, the GI50 in experiment [7], in experiment [8], in [9], in experiment [11], in experiment [12] and in [13] was inactive: > 100 µM throughout. Moreover, the GI50 in experiment [14] and in [15] was inactive: > 100 µM in each case.
Turning to `CC1=CC2OC3CC4OC(=O)/C=C\C=C\C(C(C)O)OCCC(C)C(O)C(=O)OCC2(CC1O)C4(C)C31CO1` (centres undefined), the GI50 in [12] is active: < 0.005 µM.
In the case of `O=[As](O)(O)O`, the GI50 in [1], in experiment [2], in experiment [3], in [4], in [5] and in [6] was inactive: > 100 µM each time. The GI50 is inactive: > 100 µM in experiment [7]; inactive: > 100 µM in [8]; inactive: > 100 µM in experiment [9]; inactive: 72.8 µM in experiment [10]; inactive: 22.9 µM in [11]; inactive: > 100 µM in experiment [12]. Moreover, the GI50 in [13], in experiment [14] and in experiment [15] was inactive: > 100 µM throughout.
`Cc1ccc2ccc(C)c(C)c2c1.O=[N+]([O-])c1cc([N+](=O)[O-])c(O)c([N+](=O)[O-])c1O`: the GI50 in experiment [1] was inactive: > 100 µM; in experiment [2], inactive: 42 µM; in experiment [3], inactive: > 100 µM; in [4] it was inactive: > 100 µM; in experiment [5], inactive: > 100 µM; in experiment [7], inactive: > 100 µM. In addition, the GI50 in experiment [8] is inactive: 67.8 µM; in experiment [9] it was inactive: > 100 µM; in experiment [10] it was inactive: > 100 µM; in experiment [11], inactive: > 100 µM; in experiment [12], inactive: > 100 µM; in [13], inactive: > 100 µM. The GI50 in [14] was inactive: > 100 µM; in [15], inactive: 84.3 µM.
Take `C[S+](N)(=O)CCC(N)P(=O)(O)O` (centres undefined): the GI50 in experiment [1], in experiment [3], in experiment [4], in [5], in experiment [6] and in [7] was inactive: > 100 µM in each case. For the same molecule, the GI50 in experiment [8] is inactive: > 100 µM; in [9], inactive: > 100 µM; in experiment [10], inactive: > 100 µM; in experiment [11], inactive: > 100 µM; in experiment [12] it was inactive: > 100 µM; in experiment [14] it was inactive: 39.8 µM. In addition, the GI50 in [15] is inactive: 70.8 µM.
